Values of other authors, collected in patent US9119409B2, “Water soluble nutritional supplement for ruminants” (priority 2013, dated 2015).

Settings: in water; individual salt

Substance: calcium gluconate
- solubility: about 30 g/L
